From ChEMBL document CHEMBL3612027, “Substrate-guided optimization of the syringolins yields potent proteasome inhibitors with activity against leukemia cell lines” (Bioorg Med Chem, 2015)

Sequences of proteins named here, by UniProt entry; tags and fusion partners are left off. A change or cut given only in a name is not applied to a line headed by its entry.
UniProt P28074: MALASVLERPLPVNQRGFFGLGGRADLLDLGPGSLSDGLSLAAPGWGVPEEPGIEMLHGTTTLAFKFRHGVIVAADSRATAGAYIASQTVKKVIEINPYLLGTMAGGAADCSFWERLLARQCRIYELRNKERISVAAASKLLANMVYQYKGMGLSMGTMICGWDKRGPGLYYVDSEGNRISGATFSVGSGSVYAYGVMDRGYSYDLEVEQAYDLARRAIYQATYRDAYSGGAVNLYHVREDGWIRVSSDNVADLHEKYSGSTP

These molecules were tested on MDA-MB-468 (assay: Cytotoxicity against human MDA-MB-468 cells assessed as cell growth at 10 uM after 48 hrs relative to control). Conditions: MDA-MB-468, 48 h, read-out: Activity.
Type: functional
Summary of the method: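 Run at the National Cancer Institute as a single-dose screen across its 60-cell-line cancer panel. Compound was tested at 10 micromolar, and growth was expressed as a percentage of negative-control cultures.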

Work on `COC(=O)[C@@H](NC(=O)N[C@H](C(=O)N[C@H]1CCCCNC(=O)/C=C/[C@H](Cc2c[nH]c3ccccc23)NC1=O)C(C)C)C(C)C` yielded a growth at 10 µM of -5.14%.

Each molecule was assayed against Proteasome Macropain subunit MB1 (Homo sapiens, UniProt P28074). Conditions: not given.

`COC(=O)[C@@H](NC(=O)N[C@H](C(=O)N[C@H]1CCCCNC(=O)/C=C/[C@H](Cc2ccccc2F)NC1=O)C(C)C)C(C)C` and `COC(=O)[C@@H](NC(=O)N[C@H](C(=O)N[C@H]1CCCCNC(=O)/C=C/[C@H](Cc2ccccc2Cl)NC1=O)C(C)C)C(C)C` are within 1.5-fold of each other in Kin: 0.000479 s⁻¹ for the first, 0.000516 s⁻¹ for the second.

`COC(=O)[C@@H](NC(=O)N[C@H](C(=O)N[C@H]1CCCCNC(=O)/C=C/[C@H](Cc2ccc(C)cc2)NC1=O)C(C)C)C(C)C` and `COC(=O)[C@@H](NC(=O)N[C@H](C(=O)N[C@H]1CCCCNC(=O)/C=C/[C@H](Cc2ccc(Cl)cc2)NC1=O)C(C)C)C(C)C` are within 1.5-fold of each other in Kin: 0.0005 s⁻¹ for the first, 0.000499 s⁻¹ for the second.

`COC(=O)[C@@H](NC(=O)N[C@H](C(=O)N[C@H]1CCCCNC(=O)/C=C/[C@H](Cc2cccc(Cl)c2)NC1=O)C(C)C)C(C)C` and `COC(=O)[C@@H](NC(=O)N[C@H](C(=O)N[C@H]1CCCCNC(=O)/C=C/[C@H](Cc2cccc(C)c2)NC1=O)C(C)C)C(C)C` are within 1.5-fold of each other in Kin: 0.000489 s⁻¹ for the first, 0.000495 s⁻¹ for the second.

`COC(=O)[C@@H](NC(=O)N[C@H](C(=O)N[C@H]1CCCCNC(=O)/C=C/[C@H](C(C)C)NC1=O)C(C)C)C(C)C` and `COC(=O)[C@@H](NC(=O)N[C@H](C(=O)N[C@H]1CCCCNC(=O)/C=C/[C@H](CC(C)C)NC1=O)C(C)C)C(C)C` are within 1.5-fold of each other in Kin: 0.00055 s⁻¹ for the first, 0.000613 s⁻¹ for the second.

`COC(=O)[C@@H](NC(=O)N[C@H](C(=O)N[C@H]1CCCCNC(=O)/C=C/[C@H](Cc2c[nH]c3ccccc23)NC1=O)C(C)C)C(C)C` and `COC(=O)[C@@H](NC(=O)N[C@H](C(=O)N[C@H]1CCCCNC(=O)/C=C/[C@H](Cc2ccccc2)NC1=O)C(C)C)C(C)C` are within 1.5-fold of each other in Kin: 0.000514 s⁻¹ for the first, 0.000472 s⁻¹ for the second.

`COC(=O)[C@@H](NC(=O)N[C@@H](Cc1ccccc1)C(=O)N[C@H]1CCCCNC(=O)/C=C/[C@H](Cc2c[nH]c3ccccc23)NC1=O)C(C)C` and `COC(=O)[C@@H](NC(=O)N[C@@H](Cc1ccccc1)C(=O)N[C@H]1CCCCNC(=O)/C=C/[C@H](C(C)C)NC1=O)C(C)C` are within 1.5-fold of each other in Kin: 0.000551 s⁻¹ for the first, 0.000598 s⁻¹ for the second.

Work on `COC(=O)[C@@H](NC(=O)N[C@H](C(=O)N[C@H]1CCCCNC(=O)/C=C/[C@H](Cc2cccc(C(F)(F)F)c2)NC1=O)C(C)C)C(C)C` yielded a Kin of 0.000472 s⁻¹.
